# According to patent US20230110354A1, “THERAPEUTIC AGENT DELIVERY SYSTEMS AND METHODS OF FORMING AND USES THEREOF” (The Regents of the University of Colorado, a Body Corporate, priority 2020, published 2023):
# Tests used:
# [1] = In vitro protein release test from SRTG micelle system (ELISA); type: physicochemical
# Procedure: Proton nuclear magnetic resonance (1H NMR) was completed with a Varian Inova 500 NMR spectrometer. 1H NMR was used to confirm the structure of PEG-PSHU-PEG. The PEG-PSHU-PEG samples to be analyzed were dissolved in 600 μL of DMSO-d6. Protein Release Test. SRTG 5 wt % polymeric solutions (SRTG+VEGF+NPs+PDGF+IL-10) were created using PBS with 0.2% BSA with samples run in triplicates. Solutions were mixed and left to dissolve overnight at 4° C. 500 ng of each of IL-10, the VEGF, and the PDGF was added to the gels at different times. The micelle NPs loaded with the PDGF were added 30 min before gelling, and the VEGF and IL-10 were added 10 min before gelation. 50 μL gels were formed in 2 mL vials and placed in a 37° C. incubator for 5 min to promote gelation and encapsulation of proteins and micelles. Then, 1 mL of warm (37° C.) release solution (lx PBS with 0.2% BSA) was added to the vials. After 5 min, 1 mL of release solution was removed from each sample for the day 0 time point, and 1 mL of fresh warm release solution was added. Samples were then taken every 24 h and immediately placed in a −80° C. freezer for further analysis. Enzyme-linked immunosorbent assay (ELISA) was used to quantify the concentration of proteins in the release solution samples following the manufacturer's instructions (Peprotech, Rocky Hill, N.J.). ELISA color development was monitored with a BioTek Synergy 2 Multi-Mode Reader at 405 nm with wavelength correction set at 650 nm. The results of three replicates were averaged. The hydrogels were initially allowed to stabilize for 5 min at which a sample was taken to determine the loading efficiency of the proteins in the hydrogels (day 0).
# [2] = delivered intravenously; cited from earlier work
substance,measurement,setting,value
VEGF,loading efficiency of protein in the hydrogel,"[1]; SRTG 5 wt% + micelle NPs, 500 ng of each protein, day 0 sample after 5 min",79%
same,loaded protein released by day 1 (burst release),"[1]; SRTG 5 wt% + micelle NPs, PBS with 0.2% BSA, 37° C.",approximately 63%
same,sustained release rate,"[1]; after day 0 / day 1 through 28 days, SRTG micelle system",0.77 ng per day
same,half-life,[2],over 30 min
